Measured values reported in paper PMC10175095 (Therapeutic drug monitoring, 2023).

Assays:
[1] = Reinjection stability in final extract; type: physicochemical; conditions: reinjected, 4°C, autosampler, 25.95 h, nominal 15 ng/mL
[2] = Long-term stability of unprocessed plasma samples at −80°C; type: in vitro ADME; conditions: human plasma, 12 months, nominal 150 ng/mL

CCN1CCN(Cc2ccc(Nc3ncc(F)c(-c4cc(F)c5nc(C)n(C(C)C)c5c4)n3)nc2)CC1 [Abemaciclib, abemaciclib]
Accuracy vs. nominal concentration [1]: 109%
Accuracy vs. nominal concentration [2]: 109%
